Paper PMC5298231, “The Malaria Parasite's Lactate Transporter PfFNT Is the Target of Antiplasmodial Compounds Identified in Whole Cell Phenotypic Screens” (PLoS Pathogens, 2017)

Test system: 3D7 P. falciparum trophozoites
Experiment: Cytosolic pH (pHcyt) measurement in BCECF-loaded saponin-isolated trophozoites
Conditions: not given

SMILES | Effect on resting cytosolic pH in glucose-free medium
O=C1CC(O)(C(F)(F)C(F)(F)F)Oc2ccccc21 (centres unmarked) [MMV000972] | no change in the resting pH
COc1ccc2c(c1)OC(O)(C(F)(F)C(F)(F)F)CC2=O (centres unmarked) [MMV007839] | no change in the resting pH

Same assay, conditions: 1 μM

SMILES | Effect on pHcyt at 1 μM (Comments)
CC(C)OCc1cc(CN2CCN(c3cccc(Cl)c3)CC2)c(O)c2ncccc12 [MMV000788] | minor (A minor effect on pHcyt corresponds to a change of < 0.15 pH unit)
Brc1ccc(Nc2nc3ccccc3nc2Nc2ccc(Br)cc2)cc1 [MMV007224] | minor (A minor effect on pHcyt corresponds to a change of < 0.15 pH unit)
Cc1ccc(Nc2nc(-c3ccccn3)cs2)cc1 [MMV007907] | minor (A minor effect on pHcyt corresponds to a change of < 0.15 pH unit)
Cc1cccc(-n2ncc3c(O)nc(-n4nc(C)cc4NC(=O)c4cc5ccccc5o4)nc32)c1 [MMV403679] | minor (A minor effect on pHcyt corresponds to a change of < 0.15 pH unit)
FC(F)(F)c1cccc(Nc2nc3ccccc3nc2Nc2cccc(C(F)(F)F)c2)c1 [MMV665794] | minor (A minor effect on pHcyt corresponds to a change of < 0.15 pH unit)
O=C(Nc1nc(-c2ccccn2)cs1)c1ccccc1Br [MMV665909] | minor (A minor effect on pHcyt corresponds to a change of < 0.15 pH unit)
O=C(Cc1ccccc1)NC(c1ccc(Cl)cc1)c1c(O)ccc2ccccc12 (centres unmarked) [MMV665972] | minor (A minor effect on pHcyt corresponds to a change of < 0.15 pH unit)

Test system: digestive vacuole of isolated 3D7 trophozoite-stage parasites
Experiment: Digestive vacuole pH (pHDV) measurement in isolated parasites containing fluorescein-dextran
Conditions: 1 μM, 37°C, S1 Fig

SMILES | Effect on the pH inside the digestive vacuole (pHDV)
O=C(Nc1cccc(C(F)(F)F)c1)c1cc(Cl)ccc1O [MMV665807] | had an effect
O=C(NC(c1ccccc1)c1ccc2cccnc2c1O)c1ccccc1 (centres unmarked) [MMV666080] | without effect
